Columns and labels:
[1] = tested on: human STING pathway (THP1-ISG cells); assay: STING human cell reporter assay; settings: read-out: human cell reporter EC50, IRF-inducible SEAP reporter, 24 h, means of at least three values, tested form: Na salt
Description: Agonism of the human STING pathway is assessed in THP1-ISG cells (Invivogen, cat #thp-isg) derived from human THP1 monocyte cell line by stable integration of an interferon regulatory factor (IRF)-inducible SEAP reporter construct. THP1-Blue ISG cells express a secreted embryonic alkaline phosphatase (SEAP) reporter gene under the control of an ISG54 minimal promoter in conjunction with five interferon (IFN)-stimulated response elements. As a result, THP1-Blue ISG cells allow the monitoring of IRF activation by determining the activity of SEAP. The levels of IRF-induced SEAP in the cell culture supernatant are readily assessed with alkaline phosphatase detection medium, a SEAP detection reagent. These cells are resistant to Zeocin. 2′3′cGAMP was used as a positive control in this assay. To run the assay, 60,000 cells were dispensed in 30 μL/well of a white, opaque bottom tissue culture treated 384-well plate.
Test compounds were added in a volume of 10 μL (1% DMSO final concentration). Compounds are initially prepared in 100% DMSO, spotted on an compound dilution plate and then diluted in media prior to transfer. The assay was incubated for 24 h at 37° C., 5% CO2 then plates were centrifuged at 1200 rpm (120×g) for 5 min. After final incubation, 90 μL of alkaline phosphatase detection medium-substrate was added to each well of a new 384-well clear plate and 10 μL of the cell supernatant was transferred from the assay plate to the new alkaline phosphatase detection medium-plate using a Biomek FX and mixed 4 times. Plates were incubated at RT for 20 min then absorbance at 655 nm was determined on the Tecan Safire2.

By UniProt entry, the sequences of proteins in these tests, tags left out. Residues count along the entry.
UniProt Q86WV6, 139-379 H232R limits assumed: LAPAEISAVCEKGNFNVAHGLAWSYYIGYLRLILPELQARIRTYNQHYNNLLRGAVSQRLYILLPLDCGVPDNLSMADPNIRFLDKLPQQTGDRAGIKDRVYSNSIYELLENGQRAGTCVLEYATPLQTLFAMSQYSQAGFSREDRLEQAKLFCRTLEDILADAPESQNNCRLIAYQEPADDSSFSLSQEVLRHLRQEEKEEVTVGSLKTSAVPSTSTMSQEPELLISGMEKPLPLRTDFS

[2] = biological target: human STING (biotinylated STING protein, residues 139-379 of Q86WV6, H232R) (Homo sapiens, UniProt Q86WV6, H232R); assay: STING SPA binding assay; settings: read-out: hSTING SPA IC50; displacement of [3H]-2′3′-cGAMP from biotin-STING; means of at least three values; tested form: Na salt
[3] = tested on: THP1-Blue ISG cells (IFN-β secretion); assay: Human interferon-β induction assay; settings: total cumulative IFN-β induction over the dose range tested (0.78 to 50 uM) in THP-1 cells after a 24 hour exposure; tested form: Na salt
Description: THP1-Blue ISG cells are used to measure the secretion of IFN-β into the culture supernatant following STING pathway activation. To run the assay, anti-IFN-β capture antibodies were coated on […] well MultiArray plates (Mesoscale Discovery). After a one hour incubation, plates were washed and 50 μL supernatant from the STING human cell reporter assay plates or IFN-β standards were mixed with 20 μL Sulfotag-conjugated detection antibody in the coated plates. Plates were incubated, shaking for 2 h, washed, and read buffer was applied. Electrochemiluminescence was measured on the SectorImager.

Structure (SMILES)	EC50 [1] [nM]	IC50 [2] [nM]	human IFN-β (ranking value) [3] [pg/mL]
Nc1ncnc2c1ncn2[C@@H]1O[C@@H]2CNS(=O)(=O)O[C@@H]3[C@H](O)[C@@H](COP(=O)(O)O[C@H]2[C@H]1F)O[C@H]3n1cnc2cncnc21	260	37100	–
CO[C@H]1[C@H]2NS(=O)(=O)OC[C@H]3O[C@@H](n4cnc5c(=O)[nH]cnc54)[C@H](F)[C@@H]3OP(=O)(O)OC[C@H]1O[C@H]2n1cnc2c(=O)[nH]c(N)nc21	–	320	18191
Nc1ncnc2c1ncn2[C@@H]1O[C@@H]2CNS(=O)(=O)O[C@@H]3[C@H](O)[C@@H](COP(=O)(O)O[C@H]2[C@H]1F)O[C@H]3c1cnc2c(N)ncnn12	6660	> 100000	–
Nc1nc2c(nnn2[C@@H]2O[C@@H]3COP(=O)(O)O[C@H]4[C@H](F)[C@H](n5cnc6c(N)ncnc65)O[C@@H]4CNS(=O)(=O)O[C@@H]2C3)c(=O)[nH]1	1840	76200	–
Nc1nc2c(ncn2[C@@H]2O[C@@H]3COP(=O)(O)O[C@H]4[C@H](F)[C@H](n5cnc6c(N)ncnc65)O[C@@H]4CNS(=O)(=O)O[C@@H]2[C@@H]3F)c(=O)[nH]1	53	290	16254
CO[C@H]1[C@H]2OS(=O)(=O)NC[C@H]3C[C@@H](n4ccc5c(N)ncnc54)[C@H](O)[C@@H]3OP(=O)(O)OC[C@H]1O[C@H]2n1cnc2c(=O)[nH]c(N)nc21	2380	11700	5539
Nc1nc2c(ncn2[C@@H]2O[C@@H]3COP(=O)(O)O[C@H]4[C@@H](F)[C@H](n5cnc6c(N)ncnc65)O[C@@H]4CNS(=O)(=O)O[C@@H]2C3)c(=O)[nH]1	170	390	–
Nc1ncnc2c1ncn2[C@@H]1O[C@@H]2CNS(=O)(=O)O[C@@H]3[C@H](F)[C@@H](COP(=O)(O)O[C@H]2[C@H]1F)O[C@H]3n1cnc2c(N)ncnc21	25	4260	–

Reference: patent publication US20210009630A1, “CYCLIC DINUCLEOTIDES AS STING AGONISTS” (Janssen Biotech, Inc., priority 2017, published 2021)
